Measured affinities in a library of Ab-14 light chain variants

From the AlphaSeq antibody data of Li et al. 2023 (doi:10.1038/s41467-023-39022-2), copy in the FLAb collection.

The target is the same throughout: PDVDLGDISGINAS, from the HR2 region of SARS-CoV-2 spike.

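The starting antibody came from a phage panning campaign against this peptide. Designed CDR sequences, proposed from the first random library and measured here. Their group label is 14L_GP_Gibbs (GP: Gaussian process model; Gibbs: Gibbs sampling; a sequence that several methods proposed may carry one label only). The assay is AlphaSeq: two haploid yeast populations carry antibody and antigen on their surface. Mating (16 h, 30 °C) was followed by selection of diploids and sequencing of their barcodes. Scores were corrected for input abundance and mapped to Kd with protein pairs of known affinity run in the same pool. Each pool was mated in six replicate cultures.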

Parent: Ab-14, a human scFv built as VH, a 15-residue (Gly4Ser)3 linker, VL. Only the CDRs of the light chain vary.
VH: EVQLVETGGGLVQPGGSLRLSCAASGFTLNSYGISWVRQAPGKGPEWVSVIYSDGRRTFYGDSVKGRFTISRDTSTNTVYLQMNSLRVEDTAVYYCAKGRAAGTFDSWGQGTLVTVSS
VL: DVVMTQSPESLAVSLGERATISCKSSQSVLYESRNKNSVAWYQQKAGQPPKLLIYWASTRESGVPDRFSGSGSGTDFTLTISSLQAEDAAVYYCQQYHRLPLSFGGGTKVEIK

Each variant is given by its three light chain CDRs, as the data file delimits them; those of the parent are KSSQSVLYESRNKNSVA, WASTRES, QQYHRLPLS. The read-out is the apparent dissociation constant on a log10 scale (nM): the lower, the stronger. A pair that was not seen in that replicate is written "nd"; this usually means weak binding, but a binder can also be missed.

{"CDR-L1": "KISQSVGYQDRNKNSVA", "CDR-L2": "NAQTRMQ", "CDR-L3": "QQYHRLPLS", "replicates, log10 nM": "0.49 0.92 1.33 0.97 nd 2.25", "empty controls": "0 of 18"}
{"CDR-L1": "KVSPSVQYEQRQFNSVA", "CDR-L2": "EASTREQ", "CDR-L3": "QQYHRLPLS", "replicates, log10 nM": "0.27 0.43 0.05 -0.04 0.23 0.34", "empty controls": "2 of 18 (2.05)"}
{"CDR-L1": "KLSESVLYESQNWNNVA", "CDR-L2": "DASTRMS", "CDR-L3": "QQYHRLPLS", "replicates, log10 nM": "-0.17 -0.55 -0.38 -0.71 -0.62 -0.24", "empty controls": "1 of 18 (2.22)"}
{"CDR-L1": "SLSQSALYESRNKNSVA", "CDR-L2": "NASTREW", "CDR-L3": "QQYHRLPLS", "replicates, log10 nM": "0.02 -0.24 -0.28 -0.63 -0.24 0.11", "empty controls": "1 of 18 (2.73)"}
{"CDR-L1": "KYSQQMLYESRNKNNVA", "CDR-L2": "EASHRES", "CDR-L3": "QQYHRLPLS", "replicates, log10 nM": "0.00 -0.17 -0.22 -0.15 -0.19 0.17", "empty controls": "2 of 18 (2.50)"}
{"CDR-L1": "KIQQGELMESRNKNSVA", "CDR-L2": "HASERES", "CDR-L3": "QQYHRLPLS", "replicates, log10 nM": "0.71 0.68 0.51 0.52 0.29 0.35", "empty controls": "0 of 18"}
{"CDR-L1": "KLQQWHLYESRMKNSVA", "CDR-L2": "HASKRES", "CDR-L3": "QCYHRLPLS", "replicates, log10 nM": "1.72 1.29 1.81 1.46 2.20 1.59", "empty controls": "0 of 18"}
{"CDR-L1": "KMSQSVPYEERNKNSVA", "CDR-L2": "NASKRLS", "CDR-L3": "QQYHRLPLS", "replicates, log10 nM": "0.94 -0.14 0.69 0.26 0.08 0.38", "empty controls": "0 of 18"}
{"CDR-L1": "KSSQSTLYESGMKNSVA", "CDR-L2": "NASKRMQ", "CDR-L3": "QQYHRLPLS", "replicates, log10 nM": "0.50 0.26 0.28 -0.01 0.35 0.33", "empty controls": "1 of 18 (2.88)"}
{"CDR-L1": "KIHQSVLYEDRNINSVA", "CDR-L2": "SASQRES", "CDR-L3": "QQYHRLPLS", "replicates, log10 nM": "0.07 -0.07 -0.06 0.05 0.14 0.15", "empty controls": "1 of 18 (2.69)"}
{"CDR-L1": "KFSWSNPYETRNKNSVA", "CDR-L2": "EASQREE", "CDR-L3": "QQYHRLPLS", "replicates, log10 nM": "0.18 -0.20 -0.44 -0.25 -0.37 0.07", "empty controls": "0 of 18"}
{"CDR-L1": "KFSQQMLYESRMKNPVA", "CDR-L2": "NASQREQ", "CDR-L3": "QQYHRLPLS", "replicates, log10 nM": "0.38 0.15 0.22 0.01 0.11 0.31", "empty controls": "1 of 18 (2.62)"}
{"CDR-L1": "KLSQSVKYEDRNWNNVA", "CDR-L2": "NASTRES", "CDR-L3": "QAYHRLPLS", "replicates, log10 nM": "0.71 0.34 0.38 0.53 0.23 0.62", "empty controls": "1 of 18 (3.34)"}
{"CDR-L1": "KVSGSQLYESRNSNSVA", "CDR-L2": "DASNRES", "CDR-L3": "QQYHRLPLS", "replicates, log10 nM": "0.32 0.31 0.24 0.15 0.13 0.59", "empty controls": "0 of 18"}
{"CDR-L1": "KLSGSDLYESRNSNSVA", "CDR-L2": "NGSTRES", "CDR-L3": "QDYHRLPLS", "replicates, log10 nM": "0.17 0.20 0.08 -0.07 -0.18 0.11", "empty controls": "1 of 18 (2.56)"}
{"CDR-L1": "KSQQQYEYGDRNKNSVA", "CDR-L2": "NASQRED", "CDR-L3": "QQYHRLPLS", "replicates, log10 nM": "0.12 -0.12 -0.13 -0.32 -0.11 -0.09", "empty controls": "2 of 18 (2.46)"}
{"CDR-L1": "KVSQSAPYEDRNLNNVA", "CDR-L2": "HASTRES", "CDR-L3": "QQYHRLPLM", "replicates, log10 nM": "-0.31 -0.45 -0.33 -0.52 -0.34 -0.29", "empty controls": "1 of 18 (2.17)"}
{"CDR-L1": "KLMYSAEYESRNKNSVA", "CDR-L2": "EASTRES", "CDR-L3": "QQYHRLPLS", "replicates, log10 nM": "0.08 0.06 -0.11 -0.18 -0.21 0.08", "empty controls": "2 of 18 (3.10)"}

Repeated from above, the 2 best binders with a signal in all replicates:

{"CDR-L1": "KLSESVLYESQNWNNVA", "CDR-L2": "DASTRMS", "CDR-L3": "QQYHRLPLS", "replicates, log10 nM": "-0.17 -0.55 -0.38 -0.71 -0.62 -0.24", "empty controls": "1 of 18 (2.22)"}
{"CDR-L1": "KVSQSAPYEDRNLNNVA", "CDR-L2": "HASTRES", "CDR-L3": "QQYHRLPLM", "replicates, log10 nM": "-0.31 -0.45 -0.33 -0.52 -0.34 -0.29", "empty controls": "1 of 18 (2.17)"}

In the paper, a design with two or fewer of six values counts as a poor binder. As a blank, each scFv also met three strains without target: over all light chain designs, 4% of these pairings were detected, typically at 2.64 and seldom below 1.59. Also given: how often the same scFv was detected with the empty control strains, with their mean in brackets. Of ten entries with the parent sequence, four were seen in most replicates (averages 0.34 to 2.37), three in one and three in none, so single entries are noisy. Values of this round are not directly comparable with the first-round values of the same sequences.